Test results reported in publication PMC9408963 (International Journal of Molecular Sciences, 2022).

Assay: in vitro
Settings: rat

`COc1cc([C@@H]2c3cc4c(cc3[C@@H](O)[C@H]3COC(=O)[C@H]23)OCO4)cc(OC)c1O` [DMEP, 4′-demethylepipodophyllotoxin] showed an IC50 of 30.8 µM.
